In PubChem BioAssay AID435003 (Sanford-Burnham Center for Chemical Genomics, 2010):
Only a part is listed here, and it is no random draw. Some tests of the compounds listed are not included; inactive here does not mean inactive elsewhere. Activity calls are given as the source filed them. No stated cut-off is given here; in the data, active means inhibition above about 50%; inactive means the rest.

Test: lowers stimulated NF-kB reporter luminescence – cell-based, uHTS, TCR NF-kB activation inhibitor project, primary screen (AID 435003)
Details: Jurkat, PMA/ionomycin-induced NF-kB luciferase reporter, at 4 µM, stronger effect = higher value

Row | SMILES | inhibition
1 | COc1cc(C(=O)NCC2(N(C)C)CCCCC2)c([N+](=O)[O-])cc1OC | inactive: -13.4%
2 | CN(C)C1(CNC(=O)c2ccc(Br)cc2)CCCCC1 | inactive: -25.6%
3 | O=C(NCC1(N2CCCCC2)CCCCC1)c1cccc(Cl)c1 | inactive: 9.43%
4 | COc1cccc(C(=O)NCC2(N3CCCCC3)CCCCC2)c1 | inactive: -2.99%
5 | COc1ccc(Cl)cc1C(=O)NCC1(N(C)C)CCCCC1 | inactive: -5.93%
6 | O=C(OC1CN2CCC1CC2)C(CO)(c1ccccc1)c1ccccc1 (centres undefined) | inactive: 6.9%
7 | CN(C)c1cccc(C(=O)NCC2(N(C)C)CCCCC2)c1 | inactive: 1.52%
8 | CC(C)Oc1ccc(C(=O)NCC2(N(C)C)CCCCC2)cc1 | inactive: -12.6%
9 | COc1ccc(Br)c(C(=O)NCC2(N3CCCCC3)CCCCC2)c1 | inactive: -8.29%
10 | CN1[C@@H]2CC[C@H]1CC(OC(=O)C(O)(c1ccccc1)c1ccccc1)C2 (some centres undefined) | inactive: -24.2%
11 | O=C(NCC1(N2CCCCC2)CCCCC1)c1cc([N+](=O)[O-])ccc1Cl | inactive: -11.7%
12 | Cc1ccc(C(=O)NCC2(N3CCCCC3)CCCCC2)cc1 | inactive: -1.19%
13 | CC(C)N1C(=O)CC2(CCN(CCOC(=O)C(O)(c3ccccc3)c3ccccc3)CC2)C1=O | inactive: -8.46%
14 | CCN(CC)CC(C)C(C)OC(=O)C(O)(c1ccccc1)c1ccccc1 (centres undefined) | inactive: 0.0796%
15 | COc1cc(SC)ccc1C(=O)NCC1(N(C)C)CCCCC1 | inactive: -3.55%
16 | Cc1ccccc1C(=O)NCC1(N2CCCCC2)CCCCC1 | inactive: -6.2%
17 | CN(C)c1ccc(C(=O)NCC2(N(C)C)CCCCC2)cc1 | inactive: -32.9%
18 | CN(C)C1CCCC1OC(=O)C(O)(c1ccccc1)c1ccccc1 (centres undefined) | inactive: 9.51%
19 | CCN1CCCC(OC(=O)C2(O)c3ccccc3C=Cc3ccccc32)C1 (centres undefined) | inactive: 6.93%
20 | Cc1cc(C(=O)NCC2(N3CCCCC3)CCCCC2)ccc1[N+](=O)[O-] | inactive: -19.4%
21 | O=C(NCC1(N2CCCCC2)CCCCC1)c1cccc(Br)c1 | inactive: 4.97%
22 | COc1ccc(C(=O)NCC2(N(C)C)CCCCC2)cc1 | inactive: -4.01%
23 | C=CCN1CCN(CCOC(=O)C(O)(c2ccccc2)c2ccccc2)CC1 | inactive: 8.1%
24 | O=C(NCC1(N2CCCCC2)CCCCC1)c1cc(F)c(F)cc1Cl | inactive: 7.29%
